According to patent US10959968B2, “Methods for treating c-Met-dependent cancers” (Board of Supervisors of Louisiana State University and …, priority 2016, dated 2021):
Entries after “also recorded” stand apart in the source; their conditions may differ.

Test system: MDA-MB-231/GFP human breast cancer cells
Experiment: Orthotopic breast cancer xenograft in athymic nude mice
Assay type: in vivo

## COc1cc(CCOC(=O)/C=C/c2cc(OC)c(O)c(OC)c2)ccc1O [Compound 8, (E)-4-hydroxy-3-methoxyph-ethyl 3-(4-hydroxy-3,5-dimethoxyphenyl) acrylate]
10 mg/kg ip, 3×/week, listed as HVS
  body weight: No significant change; also recorded: without adversely affecting
31 injected doses, 10 mg/kg
  overt signs of toxicity: did not cause any overt signs of toxicity
Western blot, 10 mg/kg
  p-c Met levels in isolated tumor tissues: relatively lower levels
